{"source": "patent US20230242496A1", "about": "“SOX11 INHIBITORS FOR TREATING MANTLE CELL LYMPHOMA” (Icahn School of Medicine At Mount Sinai, priority 2020, published 2023)", "system": "Jeko-1 (SOX11+)", "assay": "Cell viability assay (CellTiter-Blue resazurin reduction)", "type": "cell-based", "details": "JeKo-1 cells, 20 μM compound, 72 hours, normalized to 0.2% DMSO", "description": "Cell viability was determined by a fluorometric resazurin reduction method (CellTiter-Blue; Promega, Madison, Wis.) following the manufacturer's instructions. […] Cells were incubated for 72 hours. After incubation, 20 μl CellTiter-Blue Cell was added to each well and incubated for another 2 hours. […] The number of viable cells in each treated well was calculated, based on the linear least squares regression of the standard curve (OD vs. cell concentration). The viability of cells treated with compounds was normalized to the viability of cells treated with 0.2% Dimethyl sulfoxide (DMSO). Cell counts were confirmed with Trypan Blue Exclusion Assay on the Countess automated cell counter (Invitrogen) according to the manufacturer's specifications. The average and mean standard deviation were calculated from three separate experiments. IC50 values were calculated using the GraphPad Prism (version 4.00) based on a sigmoidal dose-response equation.", "data": [{"smiles": "CC1Sc2ccc(C(=O)Nc3ccc(CNc4cccc(S(=O)(=O)F)c4)cc3)cc2NC1=O", "note": "(stereo not shown)", "values": [{"measurement": "Jeko-1 Viability at 20 μM (%)", "result": 19.74, "unit": "%"}]}]}
